This is a selection; strong and weak results do not stand in their true shares. Calls of active or inactive are those of the source.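 How the source made its calls: active means ratio plate-corrected score three or more library SD toward inhibition, starting fluorescence score within five deviations; inactive means the rest.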

Chains of the proteins cited; added tags and fusions are not shown. Lines headed by an entry give the natural chain unless they say otherwise; changes in a name come on top.
UniProt Q8BHY3: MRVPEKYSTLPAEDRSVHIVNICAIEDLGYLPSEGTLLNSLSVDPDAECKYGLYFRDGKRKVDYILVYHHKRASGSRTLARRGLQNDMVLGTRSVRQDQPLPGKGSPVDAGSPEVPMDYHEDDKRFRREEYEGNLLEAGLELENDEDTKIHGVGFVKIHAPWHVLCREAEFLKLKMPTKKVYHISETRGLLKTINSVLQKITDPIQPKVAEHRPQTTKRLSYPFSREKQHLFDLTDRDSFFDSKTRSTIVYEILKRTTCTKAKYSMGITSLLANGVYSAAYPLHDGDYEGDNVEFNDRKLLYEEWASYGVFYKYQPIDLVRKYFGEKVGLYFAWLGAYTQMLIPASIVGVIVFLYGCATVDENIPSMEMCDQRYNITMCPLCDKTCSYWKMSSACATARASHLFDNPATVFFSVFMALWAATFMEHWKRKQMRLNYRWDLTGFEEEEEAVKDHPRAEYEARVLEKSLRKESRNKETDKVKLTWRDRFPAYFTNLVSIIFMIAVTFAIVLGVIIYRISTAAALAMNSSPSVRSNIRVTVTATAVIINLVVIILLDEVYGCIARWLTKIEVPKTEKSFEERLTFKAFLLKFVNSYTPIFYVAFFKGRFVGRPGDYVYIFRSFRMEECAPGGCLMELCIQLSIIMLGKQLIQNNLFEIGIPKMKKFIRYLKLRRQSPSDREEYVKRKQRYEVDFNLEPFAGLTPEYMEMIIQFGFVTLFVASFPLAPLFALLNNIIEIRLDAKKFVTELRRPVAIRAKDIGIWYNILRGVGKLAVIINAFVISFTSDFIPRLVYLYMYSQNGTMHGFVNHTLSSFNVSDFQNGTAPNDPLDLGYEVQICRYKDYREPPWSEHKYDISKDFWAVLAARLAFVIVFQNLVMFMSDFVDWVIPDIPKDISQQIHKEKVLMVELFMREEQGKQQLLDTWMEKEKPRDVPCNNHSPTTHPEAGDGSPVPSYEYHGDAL

The target of this experiment is Anoctamin-1 (Mus musculus) (UniProt Q8BHY3). Put plainly: TMEM16A chloride channel inhibitors, primary screen, cell-based, HTS (AID 588511). Particulars: HEK293 TMEM16A/YFP iodide influx fluorescence, ionomycin; at 10 µM.
Turning to `CCc1nc2c(n1)c1c(non1O)c1c2no[n+]1[O-]`, the B-score was active: 25.

For `O=[N+]([O-])c1ccc(O)c(/C=N/Nc2ccc([N+](=O)[O-])cc2[N+](=O)[O-])c1`, the B-score was active: 100.

Values taken from PubChem BioAssay AID588511 (Johns Hopkins Ion Channel Center, 2011).
